The record followed here is ChEMBL document CHEMBL1759969 (Bioorg Med Chem Lett, 2011).

The chains behind the UniProt entries cited, without tags or fusion partners.
UniProt P48039, whole entry: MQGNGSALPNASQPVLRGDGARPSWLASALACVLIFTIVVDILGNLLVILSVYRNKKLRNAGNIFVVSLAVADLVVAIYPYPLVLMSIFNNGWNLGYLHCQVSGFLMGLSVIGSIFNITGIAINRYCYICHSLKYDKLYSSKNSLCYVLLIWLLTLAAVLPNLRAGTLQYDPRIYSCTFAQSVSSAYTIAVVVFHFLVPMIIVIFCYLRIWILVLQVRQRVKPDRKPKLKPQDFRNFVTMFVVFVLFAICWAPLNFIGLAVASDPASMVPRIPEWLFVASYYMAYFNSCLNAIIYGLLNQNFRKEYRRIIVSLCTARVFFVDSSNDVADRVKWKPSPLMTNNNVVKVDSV

The EC50 is the concentration that produces a half-maximal response. A higher EC50 goes with weaker potency.

In this test the target is Melatonin receptor type 1A (Homo sapiens, UniProt P48039). Kind of test: Agonist activity at human MT1 receptor expressed in CHO cells by [35S]GTPgamma binding assay. It counts as functional, cell-based.

Structures are written as SMILES.

On to `CCCC(=O)NCCn1ccc2ccc(OC)nc21`, for which the EC50 is 2.1 nM.
